{"source": "paper PMC7496650", "about": "“Enantiomerically Pure Quinoline‐Based κ‐Opioid Receptor Agonists: Chemoenzymatic Synthesis and Pharmacological Evaluation” (2020)", "key": {"EAE": {"system": "EAE", "settings": "cited from earlier work"}, "KOR [1]": {"target": "KOR (Cavia porcellus, UniProt P41144)", "assay": "KOR assay: competitive radioligand binding with [^3H]U‐69,593", "settings": "read-out: K i±SEM KOR [^3H]U‐69,593; guinea pig brain membrane preparations"}, "KOR [2]": {"system": "KOR", "settings": "read-out: K i (KOR); cited from earlier work"}, "σ1 receptor [3]": {"target": "T1, σ1 receptor (Cavia porcellus, UniProt Q60492)", "settings": "test compound concentration of 1 μM; guinea pig brain; cited from earlier work"}, "DOR [4]": {"target": "T2, DOR (Rattus norvegicus, UniProt P33533)", "settings": "read-out: K i±SEM DOR [^3H]DPDPE; rat brain membrane preparations; cited from earlier work"}, "[5]": {"system": "mouse and human immune cell subsets", "settings": "different mouse and human immune cell subsets; cited from earlier work"}, "KOR [6]": {"system": "KOR", "settings": "read-out: EC50 (KOR agonist); cited from earlier work"}, "MOR": {"target": "MOR (Cavia porcellus, UniProt A0ACM8Q262)", "settings": "read-out: K d value (MOR assay radioligand); cited from earlier work"}, "human CD4^+ T cells": {"system": "human CD4^+ T cells", "assay": "anti‐CD3/anti‐CD28 activated human CD4^+ T cells, flow cytometry"}, "σ1 receptor [7]": {"target": "T1, σ1 receptor", "assay": "σ1 receptor assay: radioligand binding with [^3H]‐(+)‐Pentazocine", "settings": "test compound concentration of 1 μM; guinea pig brain membrane preparations"}, "DOR [8]": {"target": "T2, DOR", "assay": "DOR assay: competitive radioligand binding with [^3H]DPDPE", "settings": "test compound concentration of 1 μM; rat brain membrane preparations"}, "σ2 receptor": {"target": "σ2 receptor (Rattus norvegicus, UniProt Q5U3Y7)", "assay": "σ2 receptor assay: radioligand binding with [^3H]DTG", "settings": "test compound concentration of 1 μM; rat liver membrane preparations"}, "mouse CD4^+ T cells": {"system": "mouse CD4^+ T cells", "assay": "anti‐CD3/anti‐CD28 activated mouse CD4^+ T cells, flow cytometry", "settings": "mouse T cell cultures, 1 μM, Figure 7F"}, "human macrophages": {"system": "human macrophages", "assay": "LPS‐activated human macrophages, flow cytometry", "settings": "activated human macrophages (LPS 12 h), compound 1 μM, 48 h, vs control"}, "[9]": {"settings": "activated human CD4^+ T cells, compound 1 μM, 48 h"}}, "note": "Where two headings read alike, the source gives them in different places.", "data": [{"molecule": "CN(C(=O)Cc1ccc(Cl)c(Cl)c1)[C@H]1CCCC[C@@H]1N1CCCC1", "values": [{"measurement": "symptoms of EAE", "setting": "EAE", "value": "alleviated the symptoms of EAE"}, {"measurement": "Ki", "setting": "KOR [1]", "value": 0.34, "unit": "nM"}, {"measurement": "Ki", "setting": "KOR [2]", "value": 0.34, "unit": "nM"}]}, {"molecule": "O=C(Cc1ccc(Cl)c(Cl)c1)N1CCN(Cc2cn(CCF)nn2)[C@H]2CCC[C@H](N3CCCC3)[C@H]21", "values": [{"measurement": "disease perpetuation in EAE", "setting": "EAE", "value": "significantly reduced disease perpetuation"}, {"measurement": "σ1 [^3H](+)‐pentazocine, inhibition of the radioligand binding", "setting": "σ1 receptor [3]", "value": 2, "unit": "%"}, {"measurement": "Ki", "setting": "DOR [4]", "value": 413, "unit": "nM"}, {"measurement": "expression of classical activation markers, IFN‐γ, TNF‐α and IL‐17 A", "setting": "[5]", "value": "significantly decreased"}, {"measurement": "release of anti‐inflammatory cytokines like IL‐10", "setting": "[5]", "value": "increased the release"}]}, {"molecule": "COC(=O)N1CCN(C(=O)Cc2ccc(Cl)c(Cl)c2)[C@@H]2[C@@H](N3CCCC3)CCC[C@@H]21", "values": [{"measurement": "EC50", "setting": "KOR [6]", "value": 2, "unit": "nM"}]}, {"molecule": "DAMGO", "values": [{"measurement": "Kd", "setting": "MOR", "value": 0.57, "unit": "nM"}]}, {"molecule": "O=C(Cc1ccc(Cl)c(Cl)c1)N1CCC[C@@H]2CCC[C@@H](N3CCCC3)[C@@H]21", "values": [{"measurement": "numbers of Th1 cells (CD4^+ T cells expressing IFN‐γ and T‐bet)", "setting": "human CD4^+ T cells; [9]", "value": "did not observe reduced levels"}, {"measurement": "numbers of Th17 cells (CD4^+ T cells expressing IL‐17 and ROR‐c)", "setting": "human CD4^+ T cells; [9]", "value": "did not observe reduced levels"}, {"measurement": "cell numbers of Helios^+ and Helios^− Treg subsets compared to non‐stimulated controls", "setting": "human CD4^+ T cells; human T cell cultures, 1 μM, Figure 7C", "value": "did not detect any significant difference"}, {"measurement": "σ1 [^3H](+)‐pentazocine, inhibition of the radioligand binding", "setting": "σ1 receptor [7]", "value": 0, "unit": "%"}, {"measurement": "DOR [^3H]DPDPE, inhibition of the radioligand binding", "setting": "DOR [8]", "value": 0, "unit": "%"}, {"measurement": "Ki", "setting": "KOR [1]", "value": 195, "unit": "nM"}, {"measurement": "σ2 [^3H]DTG, inhibition of the radioligand binding", "setting": "σ2 receptor", "value": 12, "unit": "%"}, {"measurement": "cell numbers of Helios^+ and Helios^− Treg subsets compared to non‐stimulated controls", "setting": "mouse CD4^+ T cells", "value": "did not detect any significant difference"}, {"measurement": "numbers of cells expressing CD86, IL‐6 and TNF‐α", "setting": "human macrophages", "value": "did not show anti‐inflammatory properties"}]}]}
